Laboratory results as given in patent publication US20110274692A1 (published 2011).

B1: XOMA 052 (antibody, V domains shown)
VH: QVQLQESGPGLVKPSQTLSLTCSFSGFSLSTSGMGVGWIRQPSGKGLEWLAHIWWDGDESYNPSLKSRLTISKDTSKNQVSLKITSVTAADTAVYFCARNRYDPPWFVDWGQGTLVTVSS
VL: DIQMTQSTSSLSASVGDRVTITCRASQDISNYLSWYQQKPGKAVKLLIYYTSKLHSGVPSRFSGSGSGTDYTLTISSLQQEDFATYFCLQGKMLPWTFGQGTKLEIK
B2: IL-1 sRI (receptor, UniProt P14778 18-336, looked up)
chain: LEADKCKEREEKIILVSSANEIDVRPCPLNPNEHKGTITWYKDDSKTPVSTEQASRIHQHKEKLWFVPAKVEDSGHYYCVVRNSSYCLRIKISAKFVENEPNLCYNAQAIFKQKLPVAGDGGLVCPYMEFFKNENNELPKLQWYKDCKPLLLDNIHFSGVKDRLIVMNVAEKHRGNYTCHASYTYLGKQYPITRVIEFITLEENKPTRPVIVSPANETMEVDLGSQIQLICNVTGQLSDIAYWKWNGSVIDEDDPVLGEDYYSVENPANKRRSTLITVLNISEIESRFYKHPFTCFAKNTHGIDAAYIQLIYPVTNFQK
notes: extracellular domain; bought; also called IL-IsRI; soluble IL-1 receptor type I
B3: IL-1 sRII (receptor, UniProt P27930 14-343, looked up)
chain: FTLQPAAHTGAARSCRFRGRHYKREFRLEGEPVALRCPQVPYWLWASVSPRINLTWHKNDSARTVPGEEETRMWAQDGALWLLPALQEDSGTYVCTTRNASYCDKMSIELRVFENTDAFLPFISYPQILTLSTSGVLVCPDLSEFTRDKTDVKIQWYKDSLLLDKDNEKFLSVRGTTHLLVHDVALEDAGYYRCVLTFAHEGQQYNITRSIELRIKKKKEETIPVIISPLKTISASLGSRLTIPCKVFLGTGTPLTTMLWWTANDTHIESAYPGGRVTEGPRQEYSENNENYIEVPLIFDPVTREDLHMDFKCVVHNTLSFQTLRTTVKE
notes: extracellular domain; bought; also called IL-1 sR11; IL-1RII

How the values were obtained:
[1] = molecular target: IL-1β (human, UniProt P01584 117-269); assay: cell-based or functional assay
[2] = molecular target: IL-1β/XOMA 052 complex (human, UniProt P01584 117-269); assay: KinExA equilibrium solution affinity, receptor titrated into IL-1β with 100-fold molar excess of XOMA 052

Binder	increase of the EC50 of the IL-1β dose response curve, MRC-5 cell IL-6 release assay, relative to isotype control antibody [1]	Kd [2]
B1	≤ 60 fold	–
B2	–	10 nM
B3	–	2 nM
